Assay results as given in ChEMBL document CHEMBL1127515, “The [(methyloxy)imino]methyl moiety as a bioisoster of aryl. A novel class of completely aliphatic beta-adrenergic receptor antagonists” (J Med Chem, 1994).

Protein sequences, listed by entry. Tags and fused reporters are not part of them.
UniProt Q28044, whole entry: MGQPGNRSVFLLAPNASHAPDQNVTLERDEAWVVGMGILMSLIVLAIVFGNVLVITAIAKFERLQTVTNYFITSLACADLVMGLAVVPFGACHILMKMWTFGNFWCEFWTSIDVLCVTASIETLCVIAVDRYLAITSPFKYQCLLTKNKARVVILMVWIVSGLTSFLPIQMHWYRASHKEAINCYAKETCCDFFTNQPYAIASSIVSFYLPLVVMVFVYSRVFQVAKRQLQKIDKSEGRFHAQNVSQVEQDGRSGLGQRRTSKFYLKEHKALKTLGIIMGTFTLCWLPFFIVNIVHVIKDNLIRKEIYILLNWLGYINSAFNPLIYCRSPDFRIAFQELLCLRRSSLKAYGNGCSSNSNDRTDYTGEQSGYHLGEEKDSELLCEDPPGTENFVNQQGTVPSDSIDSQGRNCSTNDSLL

Biological target: Beta-2 adrenergic receptor (Bos taurus, UniProt Q28044)
Experiment: Binding affinity against beta-2-adrenergic receptor in bovine lung

`CCCO/N=C/C(O)CNC(C)(C)C` (stereo unspecified) showed a Ki of 850 nM.
